AlphaSeq binding of Ab-14 light chain variants to a spike HR2 peptide

Source: Li et al. 2023 (doi:10.1038/s41467-023-39022-2), MIT Lincoln Laboratory and A-Alpha Bio; data file from the FLAb repository.

Antigen: PDVDLGDISGINAS, a 14-residue peptide of the SARS-CoV-2 spike HR2 region.

Each scFv is VH, a (GGGGS)3 linker, VL, as in the parent Ab-14, and differs from it in the CDRs of the light chain only.
VH: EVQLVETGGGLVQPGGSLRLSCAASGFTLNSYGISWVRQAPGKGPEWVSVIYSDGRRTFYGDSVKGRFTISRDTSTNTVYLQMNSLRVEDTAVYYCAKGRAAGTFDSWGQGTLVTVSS
VL: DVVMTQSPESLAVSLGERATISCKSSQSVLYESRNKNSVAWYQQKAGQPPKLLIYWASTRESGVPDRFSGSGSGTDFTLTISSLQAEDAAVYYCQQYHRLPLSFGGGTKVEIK

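The parent was found by panning a naive human phage display library on the peptide. This is the validation round: designs drawn from the data on random variants, tested in the same kind of assay. Group labels follow the data file (Ctrl: baseline library sampled from a position-specific scoring matrix, with some repeated check sequences; En: ensemble of fine-tuned language models; GP: Gaussian process model; GPLM: also part of the Gaussian process libraries; HC: hill climbing; Gen: genetic algorithm; Gibbs: Gibbs sampling; a sequence that several methods proposed may carry one label only). AlphaSeq pools MATa yeast showing the antibodies with MATalpha yeast showing the peptide. Binding brings cells together so that they mate, and sequencing counts the barcode pairs among the diploids. Each replicate has its own calibration line, from reference interactions of the BCL2 family. Mating was done six times.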

Each variant is given by its three light chain CDRs, as the data file delimits them; those of the parent are KSSQSVLYESRNKNSVA, WASTRES, QQYHRLPLS.
Scale: log10 of Kd in nM, estimated from mating counts; low values are strong binders.
Replicates are averaged; those with no signal do not enter the mean.
"not detected" means that the variant was in the library but no mating with the target was seen in any replicate; the authors take this as a sign of poor binding, and no number exists.
As a blank, each scFv also met three strains without target: over all light chain designs, 4% of these pairings were detected, typically at 2.64 and seldom below 1.59.

CDR-L1	CDR-L2	CDR-L3	group	mean log10 Kd (nM)	seen in
KVEQSVLYESRNKNSVA	EASTRES	QQYHRLPLS	GP_Gen	1.35	6 of 6
AVSFSHLYSSRNKNSVA	EASTREQ	QQYHRLPLS	GP_Gibbs	-0.08	6 of 6
KSPTSVTYESRLKNSVA	NASTRES	QQYHRLPLE	Ctrl	1.44	6 of 6
TISQMWFIESKNRNNVA	EMTTRED	QDYDRLPLS	En_HC	0.67	6 of 6
KIAQSVLYESRNKNSVA	WASTRPS	QQYHRLPLS	Ctrl	1.03	6 of 6
KVSQQHLYESRNKNSVA	QASTRES	QQYHRLPLS	GP_Gen	-0.05	6 of 6
KSSQSVLSESRRKNSVA	WASERES	QQYKRLPLS	Ctrl	2.89	3 of 6
KVSQSTLYEDRNKNSVA	NASVRSS	QQYHRLPLS	GP_Gibbs	-0.66	6 of 6
KLSQSQLYESRNKNSVA	NASKRES	QQYHRLPLS	GP_Gen	0.83	6 of 6
KGMGSMLYEQRNKNSVA	NASQRMS	QQYHRLPLS	GP_Gibbs	-0.26	6 of 6
KLQQSELYESRNKNSVA	EASKRES	QQYHRLPLS	GP_Gen	0.32	6 of 6
KLSQSVLYEGRLKNSVA	NASTRMS	QQYHRLPLS	GP_Gibbs	0.47	6 of 6
MISQLTNMGTFAINSVA	QASLRNA	QQYDRLPLT	En_Gen	1.38	6 of 6
KASQSVLYESRNKNSVA	GASTRES	QQYHRLPLS	GPLM_HC	0.52	6 of 6
KLSMITGHMSTAKNNVA	EMVTREE	QQYNRLPLS	En_Gen	1.22	6 of 6
LSSISYLYESPNKNSVA	EASTREP	QQYHRLPLS	GP_HC	0.60	6 of 6
HISMITLQGMRQRNSVA	QMTTREN	QQYDRLPLS	En_Gen	2.42	6 of 6
TISSVMNHMTRINNNVA	NQDMREA	QQYDRLPLS	En_Gen	0.13	6 of 6
KLLQSVLYESRNKNSVA	EASTRED	QQYHQLPLS	GP_HC	0.43	6 of 6
KSSQSVLYESYNKNSVA	WASTRES	QQYHRLPLS	Ctrl	2.30	4 of 6
HLSLPWQLGHDSTNAVA	NDSTLMT	QHYNRLPLS	En_Gibbs	1.23	5 of 6
HFSQSVLYESRNKNSVA	NGSTRES	QQYHRLPLS	GP_HC	-0.28	6 of 6
KISQMVRVGATVSNSIA	EEVTRAN	QQYHRLPLA	En_Gen	0.67	6 of 6
MVSQLMVWGMHAKNSIA	EAQTRIN	QQYDRLPLF	En_Gen	1.89	6 of 6
KMSQSVLYESHNKNSVA	NASTRMS	QQYHRLPLS	GP_HC	0.42	6 of 6
KSSQIVLYESRNKNSVA	WAYTRES	QQYHRLPLS	Ctrl	not detected	0 of 6
KVSQSWLYESRNKNSVA	NASQRED	QQYHRLPLS	GP_Gen	-0.33	6 of 6
KSSQSLLYESFNKNSVA	AAKTRES	YQYHSLPLS	Ctrl	not detected	0 of 6
KLPQSVLYESRNKNSVA	NASQREV	QQYHRLPLS	GP_Gen	-0.40	6 of 6
KSGQSVLYESRNQNQVA	MASTRES	QQYHRLPLS	Ctrl	2.88	3 of 6
MITAGLRGVGRNKNSVA	NAQTREE	QHYHRLPLS	En_HC	1.89	5 of 6
TVSQVHGMLEHNKNSVA	DMNTRGS	QQYDRLPLS	En_HC	-0.66	6 of 6
QLTQVQQEDTPGEYNVA	HAEVSGR	QQYSQLPLI	En_Gibbs	1.58	1 of 6
KLSLFYRMETRNKNSVA	DNSTRES	QDYDRLPLS	En_HC	2.82	4 of 6
KMDQSVLYYSNNKKSVA	NASTREM	QQYHRLPLS	Ctrl	0.40	6 of 6
KSSISELYESRNKNSVA	EASTREE	QQYHRLPLS	GP_HC	-0.01	6 of 6
KSSQSVEYESRNVNSVA	WASTRES	DQYHRLPLS	Ctrl	not detected	0 of 6
KLFQSVLYESRNKNSVA	GASTRES	QQYHRLPLS	GP_Gen	-0.09	6 of 6
KLPQSHLYESRNKNSVA	NASTRLS	QQYHRLPLS	GP_Gen	1.22	6 of 6
MISQLHNMGTFAINSVA	QASIRNA	QQYDRLPLV	En_Gen	0.91	6 of 6
SFSQSVLYESRNKNSVA	NASTRES	QQYHRLPLS	GP_HC	-0.11	6 of 6
MISQIYNMGQFAINSVA	QASTRNA	QQYDRLPLM	En_Gen	1.59	6 of 6
KIMQTLNYESFNKNSVA	GQETRER	QSYHRLPLS	En_HC	1.40	6 of 6
KSDQSVLYESRNKNNIA	WASKRES	QTYHRLPLS	Ctrl	2.08	6 of 6
KLSQSVPYESRQKNSVA	NASTRES	QQYHRLPLS	GP_Gen	-0.05	6 of 6
KHSPSEEYESRDKNSVA	MASTRMS	QQYHRLPLS	GP_Gibbs	0.81	6 of 6
HCSQSVLMESRNKNSVA	WASTRES	QQYHRLPLS	Ctrl	0.98	5 of 6
KIRVQQYMQSEMESNIA	GESVRHQ	QQYFHLPLT	En_Gibbs	0.58	6 of 6
SIYDATRMEQRNKNPIA	DVSNRPS	QQYDRLPLS	En_HC	0.60	6 of 6
KSSLSGLYESRNKNSVA	EASTRES	QQYHRLPLS	GP_HC	0.44	6 of 6
KISWNYLIESKNLNSVA	EMTTREY	QDYDRLPLS	En_HC	2.92	4 of 6
KSSISYLGGKRNKNSVA	EASTRES	QQYHRLPLS	GP_HC	1.12	6 of 6
KMPQSWWYESRNKWSVA	NASERES	QQYHRLPLS	GP_Gibbs	0.04	6 of 6
KLRQVTGYEMYNKNSVA	QTSTRVQ	QDYHRLPLS	En_HC	0.59	6 of 6
MISPSVMYGYRNLNSVA	QTQTRES	QQYNRLPLS	En_HC	-0.02	6 of 6
KFSQSKEMVNKEGESIA	GSHTIQE	QQYDRLPLA	En_Gibbs	0.63	6 of 6

A selection of 3 entries from above:

CDR-L1	CDR-L2	CDR-L3	group	mean log10 Kd (nM)	seen in
KSSQIVLYESRNKNSVA	WAYTRES	QQYHRLPLS	Ctrl	not detected	0 of 6
KLRQVTGYEMYNKNSVA	QTSTRVQ	QDYHRLPLS	En_HC	0.59	6 of 6
KMDQSVLYYSNNKKSVA	NASTREM	QQYHRLPLS	Ctrl	0.40	6 of 6

The parent sequence was in this pool as ten entries: three were never detected, three once, and four in most replicates, with averages from 0.34 to 2.37.
The range of this assay differs from that of the first round, and the authors advise against merging the two.
In the paper, a design with two or fewer of six values counts as a poor binder.